Test results reported in US20190055512A1, “METHODS AND COMPOSITIONS FOR SUBSTITUTING MEMBRANE LIPIDS IN LIVING CELLS” (The Research Foundation for The State University of New York, priority 2016, published 2019).

Tested on: A549 cells
Experiment: Cell morphology (cell rounding) and cell condition during incubation with MαCD and lipids

Methyl-α-cyclodextrin [MαCD] was tested, and the “incubation time after which cells were sensitive” value (MαCD alone) was “about 15 minutes”, the “time to rounding up of cells” value (MαCD alone) was at most 15 min and the “incubation time at which normal morphology begins to change” value (no lipid, 40 mM MαCD) was “≈15′”.
